Screening data as filed in PubChem BioAssay.
This is a sample that favours compounds with a hit; in the whole collection about 0.43% have one here.
GIV-Gai inh: inhibitors of GIV GBA-motif binding to rat Galpha-i3; P08753; Galpha-i3/FITC-GIV peptide fluorescence polarization, 90 min; stronger effect = lower value; scaled: aluminum fluoride 0%, vehicle 100%; percent of control (FP), % (test concentration not listed); 210,000 tested, 0.42% active; AID 1224905;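 active = replicate mean at 85% of control or lower, very high polarization wells dropped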;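 note: wells of about 15 µL received 100 nL stock; the first replicate is given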
HCMV NEC inh: cytomegalovirus nuclear egress complex inhibition | AID 1918969 | inhibition, % (test concentration not listed) | hit rate 0.15% among 190,000 | HTRF UL50-UL53 interaction, normalized percent inhibition; in the data active = inhibition above about 27%, passing the limit was not always enough
Active calls of the source: *; x = no result.

Second line of a record: GIV-Gai inh, HCMV NEC inh
[1] CC(C)c1ccc(N2CC(O)=C(c3nc4ccccc4[nH]3)C2=N)cc1
 : 100, x
[2] Cc1ccc(OCC(=O)NC(c2ccccc2)c2nnc(-c3ccccc3)o2)cc1 (configuration not stated)
 : 102, -17
[3] O=c1[nH]c(Nc2ccccc2)cc2ccccc12
 : -60*, 110*
[4] O=C(O)c1cc2ccccc2c(=O)[nH]1
 : 104, -23
[5] CC(=Nc1cccc(Br)c1)c1sc2ccccc2c1O
 : 56*, -32
[6] CC(=Nc1cccc(O)c1)c1sc2ccccc2c1O
 : 175, -66
[7] CCN(CC)c1ccc(N2C(=O)/C(=C/c3ccccc3)SC2=S)cc1
 : x, -8
[8] CCN(CC)c1ccc(/C=C2\SC(=S)N(c3c(C)n(C)n(-c4ccccc4)c3=O)C2=O)cc1
 : 26*, x
[9] N#CC1=C(N)SC(N)=C(C#N)C1c1cccc(C(F)(F)F)c1
 : -83*, -50
[10] N#CC1=C(N)SC(N)=C(C#N)C1c1ccc(O)cc1
 : -74*, -41
[11] CCOC(=O)C1=C(C)OC(N)=C(C#N)C1c1cccc(C(F)(F)F)c1 (configuration not stated)
 : 100, x
[12] N#CC1=C(N)SC(N)=C(C#N)C1c1cccs1
 : -54*, -48
[13] CC(=O)C1=C(C)OC(N)=C(C#N)C1c1cccs1 (configuration not stated)
 : 100, x
[14] CC(C)c1ccc(C2C(C#N)=C(N)SC(N)=C2C#N)cc1
 : x, -25
[15] COc1ccccc1N1CCN(c2cnn(-c3ccc(C(=O)O)cc3)c(=O)c2Cl)CC1
 : 104, x
[16] CCOC(=O)c1[nH]c(C)c(S(=O)(=O)NCCC2=CCCCC2)c1C
 : 110, -10
[17] Cn1cc(NC(=O)Nc2ccc(S(=O)(=O)N3CCCCC3)cc2)c2ccccc2c1=O
 : 101, -27
[18] O=C(O)C(Cc1ccc(O)cc1)N=Cc1cccc2ccccc12 (configuration not stated)
 : x, 95*
[19] O=C(O)C(Cc1ccccc1)N=Cc1c(O)c2ccccc2oc1=O (configuration not stated)
 : 99, -18
[20] Cc1cc(C)n(CCCNC(=O)Cn2cnc3ccccc3c2=O)n1
 : x, -7

Compound profiles, as listed above.
`CC(=Nc1cccc(Br)c1)c1sc2ccccc2c1O` is entered as GIV-Gai inh = 56*; HCMV NEC inh = -32
`COc1ccccc1N1CCN(c2cnn(-c3ccc(C(=O)O)cc3)c(=O)c2Cl)CC1` is entered as GIV-Gai inh = 104; HCMV NEC inh = x

Copied from the list.
For HCMV NEC inh, #4 is entered as -23
For HCMV NEC inh, #7 is entered as -8
For HCMV NEC inh, #2 is entered as -17
For HCMV NEC inh, #17 is entered as -27
For HCMV NEC inh, #9 is entered as -50
For GIV-Gai inh, #11 is entered as 100
For GIV-Gai inh, #19 is entered as 99

(further entries)
Second line of a record: GIV-Gai inh, HCMV NEC inh
[21] CCN1C(=O)/C(=C\C=C2/N(CC)c3ccc(C(=O)OC)cc3N2CC)SC1=S
 : -74*, -44
[22] CCN=C1S/C(=C\c2ccc(C(=O)OC)cc2)C(=O)N1CC
 : 100, -58
[23] CCN1C(=O)NC(c2ccc(Cl)cc2)C(C(=O)OCCOc2ccccc2)=C1C (configuration not stated)
 : 100, -8
[24] CCOC(=O)c1ccccc1NC(=O)Cn1c(=O)c(CCC(=O)NC2CCCC2)nc2ccccc21
 : 102, x
[25] CCCc1cc(=O)[nH]c(Nc2ccccc2)n1
 : 107, 77*
[26] CCc1cc(=O)[nH]c(Nc2ccccc2)n1
 : 110, -7
[27] CC(C)(C)NC(=O)CN1CCN(CC(N)=S)CC1
 : x, -4
[28] CCO/C=C1/C(=O)NC(=O)c2ccccc21
 : x, 98*
[29] CCO/C=C1/C(=O)N(Cc2ccc(OC)cc2)C(=O)c2ccccc21
 : x, 57*
[30] O=C1c2ccccc2C(=O)N1Cc1ccccc1
 : 104, -14
[31] CCOc1ccc(/C=C2/C(=O)Nc3ccccc32)cc1
 : x, 10
[32] CCO/C=C1\C(=O)N(C)C(=O)c2ccccc21
 : x, 77*
[33] CCO/C=C1/C(=O)N(c2ccc(Cl)cn2)C(=O)c2ccccc21
 : x, -22
[34] O=C(/C=C/c1ccco1)OC1CCOC1=O (configuration not stated)
 : x, -59
[35] CCNC(=O)C1CCCN(C(=O)c2cc(-c3ccncc3)n[nH]2)C1 (configuration not stated)
 : 104, -10
[36] Cc1cc(C)c2oc(-c3cccc(NC(=O)c4ccc(Br)o4)c3C)nc2c1
 : 101, -23
[37] Cc1sc(-c2cc(C(F)(F)F)on2)cc1S(=O)(=O)Nc1ccccc1Cl
 : 102, x
[38] O=S(=O)(c1ccc(-c2cnc(C3CCC3)o2)s1)N1CCCCCC1
 : 104, x
[39] Cc1cc(C)cc(NC(=O)c2ccc3ncc4c(=O)n(-c5ccc(F)cc5)[nH]c4c3c2)c1
 : 107, x
[40] CN1CCN(c2ccc3cc(S(=O)(=O)N4CCOCC4)ccc3n2)CC1
 : 101, -11
[41] COC(=O)CC1SC(=O)NC1=Nc1ccc(C)cc1 (configuration not stated)
 : x, 0
[42] COC(=O)CC1SC(=O)NC1=S (configuration not stated)
 : -68*, -72
[43] CNc1cccc2cccc(OC)c12
 : x, -43
[44] COc1ccc2cccc3c2c1C=CC3=O
 : -89*, -75
[45] CCNc1c2c3c(cccc3n(C)c1=O)C(=O)c1ccccc1-2
 : x, -17
[46] Cn1c(=O)c(NC2CCCCC2)c2c3c(cccc31)C(=O)c1ccccc1-2
 : 3.5*, x
[47] C=CC1=C(C(=O)O)N2C(=O)[C@H](NC(=O)C(=NO)c3csc(N)n3)[C@H]2SC1
 : x, -23
[48] C=CC1=C(C(=O)O)N2C(=O)C(NC(=O)C(=NOCC(=O)O)c3csc(N)n3)C2SC1 (configuration not stated)
 : x, 95*
[49] CCCN(C(=O)COc1cc(=O)n(C)c2ccccc12)c1ccc(OCC)cc1
 : 104, -23
[50] COc1cc(C=C2C(=O)NC(=O)NC2=O)cc(Cl)c1OS(=O)(=O)c1ccccc1
 : 104, 60*
[51] COc1cc(C=C2C(=O)N(C)C(=O)N(C)C2=O)cc(Br)c1OCCOc1ccccc1
 : 106, -7
[52] CCOc1cc(C=C2C(=O)NC(=O)NC2=O)cc(Br)c1OCCOc1ccccc1
 : 108, -15
[53] COc1cc(C=C2C(=O)NC(=S)NC2=O)cc(Cl)c1OCCOc1cccc(C)c1
 : 111, 7
[54] COc1cc(C=C2C(=O)NC(=O)NC2=O)cc(Br)c1OCCOc1ccccc1
 : 105, 82*
[55] COc1ccccc1OCCOc1c(Br)cc(C=C2C(=O)N(C)C(=O)N(C)C2=O)cc1OC
 : 106, 77*
[56] O=C(Cn1cnc2c(nnn2Cc2ccccc2)c1=O)N1CCCC1
 : 108, 30
[57] Cc1cc(C)c(NC(=O)c2cc3c([nH]c2=O)CC(C)(C)CC3=O)c(C)c1
 : 98, -25
[58] CN(C)S(=O)(=O)c1ccc(C(=O)NC(=O)CSc2nnc(C3CC3)n2-c2ccccc2)cc1
 : x, -13
[59] COc1ccc(N2Cc3cccc(C(=O)Nc4cccc(OC)c4)c3C2=O)cc1
 : 105, x
[60] CCc1nnc2c(Nc3ccc(F)cc3)nc3ccccc3n12
 : 99, -10

Sorted by value in GIV-Gai inh (rising): five from the list above.
nr | SMILES | GIV-Gai inh
42 | COC(=O)CC1SC(=O)NC1=S (configuration not stated) | -68*
46 | Cn1c(=O)c(NC2CCCCC2)c2c3c(cccc31)C(=O)c1ccccc1-2 | 3.5*
57 | Cc1cc(C)c(NC(=O)c2cc3c([nH]c2=O)CC(C)(C)CC3=O)c(C)c1 | 98
50 | COc1cc(C=C2C(=O)NC(=O)NC2=O)cc(Cl)c1OS(=O)(=O)c1ccccc1 | 104
53 | COc1cc(C=C2C(=O)NC(=S)NC2=O)cc(Cl)c1OCCOc1cccc(C)c1 | 111

Remaining list, next part:
Second line of a record: GIV-Gai inh, HCMV NEC inh
[61] O=C(Cc1ncc[nH]1)c1ccccc1
 : x, -16
[62] O=c1oc2cc(O)ccc2cc1-c1nnc(NCc2ccccc2)s1
 : -32*, x
[63] O=C(Oc1ccc2cc(-c3ccc(F)cc3)c(=O)oc2c1)c1ccco1
 : 108, -16
[64] O=c1oc2cc(O)ccc2cc1-c1nnc(Nc2ccccc2F)s1
 : 231, -39
[65] COc1cccc(Nc2nnc(-c3cc4ccc(O)cc4oc3=O)s2)c1
 : -69*, x
[66] O=C(Oc1ccc2cc(-c3nc4ccccc4s3)c(=O)oc2c1)c1ccco1
 : -42*, x
[67] CCOc1ccc2cc(-c3nc4ccccc4s3)c(=O)oc2c1
 : 107, -16
[68] COc1ccc(Nc2nnc(-c3cc4c(ccc5ccccc54)oc3=O)s2)cc1
 : 102, -25
[69] O=c1oc2cc(O)ccc2cc1-c1nc2ccccc2s1
 : -79*, -60
[70] CCOC(=O)C1CCN(Cc2cccc(NC(=O)c3ccco3)c2)CC1
 : 99, -3
[71] Cc1nc2cc3c(cc2n1CC(=O)NCC(F)(F)F)OCCO3
 : x, 0
[72] COc1cccc(N2CCN(CC(=O)c3ccc4ccn(C(C)=O)c4c3)CC2)c1
 : 103, -13
[73] C=CC(=O)Nc1cccc(Oc2cc(Cl)nc3[nH]ccc23)c1
 : x, 34*
[74] C=CC(=O)Nc1cccc(Oc2nc(Nc3ccc(N4CCN(C)CC4)cc3OC)ncc2Cl)c1
 : x, 49
[75] O=C(O)CN1C(=O)Cc2ccccc2C1=O
 : x, 103*
[76] COC(=O)CN1C(=O)Cc2ccccc2C1=O
 : 98, -9
